Patent US7741340B2 (dated 2010)

Test system: Fibroblasts established from Gaucher patients with N370S/N370S mutation
Assay: Chaperone rescue of residual GCase activity in Gaucher fibroblasts
Assay type: cell-based, human
Details: N370S homozygous fibroblasts, 4 days

OC[C@H]1CNC[C@@H](O)[C@@H]1O [hydroxypiperidine, isofagomine]
optimal concentration for chaperone activity: 30 µM
